Laboratory results reported in patent publication US10280139B2, “Cytotoxic peptides and conjugates thereof” (priority 2014, dated 2019).

Assay: ADC pharmacokinetic study in non-tumor bearing mice (anti-hIgG and anti-MMAF ELISA)
[1] = single dose 1 mg/kg, plasma over three weeks

| Structure (SMILES) | Payload/linker stability in circulation (anti-MMAF versus anti-hIgG assay, words) [1] | other results |
| --- | --- | --- |
| CC[C@H](C)[C@@H]([C@@H](CC(=O)N1CCC[C@H]1[C@H](OC)[C@@H](C)C(=O)N[C@H](Cc1ccccc1)C(=O)Nc1ccc(CNC(=O)CCCCCN2C(=O)C=CC2=O)cc1)OC)N(C)C(=O)[C@@H](N=C(N(C)C)N(C)C)C(C)C [CL-1, N-(4-((R)-2-((2R,3R)-3-((S)-1-((3R,4S,5S)-4-((S)-2-((bis(dimethylamino)methylene)amino)-N,3-dimethylbutanamido)-3-methoxy-5-methylheptanoyl)pyrrolidin-2-yl)-3-methoxy-2-methylpropanamido)-3-phenylpropanamido)benzyl)-6-(2,5-dioxo-2,5-dihydro-1H-pyrrol-1-yl)hexanamide] | found to be cleaved in circulation in mice | – |
| CC[C@H](C)[C@@H]([C@@H](CC(=O)N1CCC[C@H]1[C@H](OC)[C@@H](C)C(=O)N[C@@H](Cc1ccccc1)C(=O)N(C)c1ccc(CNC(=O)CCCCCN2C(=O)C=CC2=O)cc1)OC)N(C)C(=O)[C@@H](N=C(N(C)C)N(C)C)C(C)C [CL-6, N-(4-((S)-2-((2R,3R)-3-((S)-1-((3R,4S,5S)-4-((S)-2-((bis(dimethylamino)methylene)amino)-N,3-dimethylbutanamido)-3-methoxy-5-methylheptanoyl)pyrrolidin-2-yl)-3-methoxy-2-methylpropanamido)-N-methyl-3-phenylpropanamido)benzyl)-6-(2,5-dioxo-2,5-dihydro-1H-pyrrol-1-yl)hexanamide] | – | Clearance / PK profile versus unconjugated antibody [1]: caused ADC to be cleared more rapidly than the unconjugated antibody from circulation |
| CC[C@H](C)C([C@@H](CC(=O)N1CCC[C@H]1[C@H](OC)[C@@H](C)C(=O)N[C@@H](Cc1ccccc1)C(=O)NS(=O)(=O)CCCn1cc(CN2C(=O)C=CC2=O)nn1)OC)N(C)C(=O)[C@@H](N=C(N(C)C)N(C)C)C(C)C (stereo partly drawn) [CL-9, (S)-2-((Bis(dimethylamino)methylene)amino)-1-(((3R,4S,5S)-1-((S)-2-((1R,2R)-3-(((S)-N-1-(3-(4-((2,5-dioxo-2,5-dihydro-1H-pyrrol-1-yl)methyl)-1H-1,2,3-triazol-1-yl)propylsulfonamido)-1-oxo-3-phenylpropan-2-yl)amino)-1-methoxy-2-methyl-3-oxopropyl)pyrrolidin-1-yl)-3-methoxy-5-methyl-1-oxoheptan-4-yl)(methyl)amino)-3-methyl-1-oxobutane] | – | Payload/linker stability in circulation (anti-MMAF versus anti-hIgG assay, words) (single dose 1 mg/kg, plasma over three weeks, 1 mg/kg): no cleavage; also recorded: stable in circulation in mice |
| CC[C@H](C)[C@@H]([C@@H](CC(=O)N1CCC[C@H]1[C@H](OC)[C@@H](C)C(=O)N[C@@H](Cc1ccccc1)C(=O)NCCOCCOCCNC(=O)CCN1C(=O)C=CC1=O)OC)N(C)C(=O)[C@@H](N=C(N(C)C)N(C)C)C(C)C [CL-10, (S)-N-((3R,4S,5S)-1-((S)-2-((3R,4R,7S)-7-benzyl-21-(2,5-dioxo-2,5-dihydro-1H-pyrrol-1-yl)-4-methyl-5,8,19-trioxo-2,12,15-trioxa-6,9,18-triazahenicosan-3-yl)pyrrolidin-1-yl)-3-methoxy-5-methyl-1-oxoheptan-4-yl)-2-((bis(dimethylamino)methylene)amino)-N,3-dimethylbutanamide] | stable in circulation in mice | – |
| CC[C@H](C)[C@@H]([C@@H](CC(=O)N1CCC[C@H]1[C@H](OC)[C@@H](C)C(=O)N[C@@H](Cc1ccccc1)C(=O)N[C@@H](C)COC(=O)NCCOCCN1C(=O)C=CC1=O)OC)N(C)C(=O)[C@@H](N=C(N(C)C)N(C)C)C(C)C [CL-11, (S)-2-((S)-2-((2R,3R)-3-((S)-1-((3R,4S,5S)-4-((S)-2-((bis(dimethylamino)methylene)amino)-N,3-dimethylbutanamido)-3-methoxy-5-methylheptanoyl)pyrrolidin-2-yl)-3-methoxy-2-methylpropanamido)-3-phenylpropanamido)propyl (2-(2-(2,5-dioxo-2,5-dihydro-1H-pyrrol-1-yl)ethoxy)ethyl)carbamate] | stable in circulation in mice | – |
| CC[C@H](C)[C@@H]([C@@H](CC(=O)N1CCC[C@H]1[C@H](OC)[C@@H](C)C(=O)N[C@@H](Cc1ccccc1)C(=O)NCCOCCN1C(=O)C=CC1=O)OC)N(C)C(=O)[C@@H](N=C(N(C)C)N(C)C)C(C)C [CL-12, (S)-N-((3R,4S,5S)-1-((S)-2-((3R,4R,7S)-7-Benzyl-14-(2,5-dioxo-2,5-dihydro-1H-pyrrol-1-yl)-4-methyl-5,8-dioxo-2,12-dioxa-6,9-diazatetradecan-3-yl)pyrrolidin-1-yl)-3-methoxy-5-methyl-1-oxoheptan-4-yl)-2-((bis(dimethylamino)methylene)amino)-N,3-dimethylbutanamide] | stable in circulation in mice | – |
| CC[C@H](C)[C@@H]([C@@H](CC(=O)N1CCC[C@H]1[C@H](OC)[C@@H](C)C(=O)N[C@@H](Cc1ccccc1)C(=O)NS(=O)(=O)CCCn1cc(CON)nn1)OC)N(C)C(=O)[C@@H](N=C(N(C)C)N(C)C)C(C)C [CL-22, (S)-2-((Bis(dimethylamino)methylene)amino)-1-(((3R,4S,5S)-1-((S)-2-((1R,2R)-3-(((S)-N-1-(3-(4-(aminoxymethyl)-1H-1,2,3-triazol-1-yl)propylsulfonamido)-1-oxo-3-phenylpropan-2-yl)amino)-1-methoxy-2-methyl-3-oxopropyl)pyrrolidin-1-yl)-3-methoxy-5-methyl-1-oxoheptan-4-yl)(methyl)amino)-3-methyl-1-oxobutane] | found to be cleaved in circulation in mice | MS analysis of linker cleavage of ADC from mice plasma (after administration): cleaved at the sulfonamide and oxime linker groups |
| CC[C@H](C)[C@@H]([C@@H](CC(=O)N1CCC[C@H]1[C@H](OC)[C@@H](C)C(=O)N[C@@H](Cc1ccccc1)C(=O)NS(=O)(=O)CCCNC(=O)CCCC(=O)ON1C(=O)CCC1=O)OC)N(C)C(=O)[C@@H](N=C(N(C)C)N(C)C)C(C)C [CL-32, N-hydroxysuccinimide (NHS) ester of (S)-2-((bis(dimethylamino)methylene)amino)-1-(((3R,4S,5S)-1-((S)-2-((1R,2R)-3-(((S)-N-1-(3-(4-carboxybutoyl)aminopropylsulfonamido)-1-oxo-3-phenylpropan-2-yl)amino)-1-methoxy-2-methyl-3-oxopropyl)pyrrolidin-1-yl)-3-methoxy-5-methyl-1-oxoheptan-4-yl)(methyl)amino)-3-methyl-1-oxobutane] | stable in circulation in mice | – |
| CC[C@H](C)[C@@H]([C@@H](CC(=O)N1CCC[C@H]1[C@H](OC)[C@@H](C)C(=O)N[C@@H](Cc1ccccc1)C(=O)O)OC)N(C)C(=O)[C@@H](/N=C(\N(C)C)N1CCN(C(=O)CCCCCN2C(=O)C=CC2=O)CC1)C(C)C [NL-4, (S)-2-((2R,3R)-3-((S)-1-((3R,4S,5S)-4-((S)-2-((E)-((dimethylamino)(4-(6-(2,5-dioxo-2,5-dihydro-1H-pyrrol-1-yl)hexanoyl)piperazin-1-yl)methylene)amino)-N,3-dimethylbutanamido)-3-methoxy-5-methylheptanoyl)pyrrolidin-2-yl)-3-methoxy-2-methylpropanamido)-3-phenylpropanoic acid] | stable in circulation in mice | – |
| CC[C@H](C)[C@@H]([C@@H](CC(=O)N1CCC[C@H]1[C@H](OC)[C@@H](C)C(=O)N[C@@H](Cc1ccccc1)C(=O)O)OC)N(C)C(=O)[C@@H](Nc1nc(C)cc(C(=O)NCCNC(=O)CCCCCN2C(=O)C=CC2=O)n1)C(C)C [NL-38, (S)-2-((2R,3R)-3-((S)-1-((3R,4S,5S)-4-((S)-2-((4-((2-(6-(2,5-dioxo-2,5-dihydro-1H-pyrrol-1-yl)hexanamido)ethyl)carbamoyl)-6-methylpyrimidin-2-yl)amino)-N,3-dimethylbutanamido)-3-methoxy-5-methylheptanoyl)pyrrolidin-2-yl)-3-methoxy-2-methylpropanamido)-3-phenylpropanoic acid] | stable in circulation in mice | – |

“Also recorded” adds a separate entry of the source.
